Experimental data as given in US8729061B2, “Pyrrolidine derivatives” (Hoffmann-La Roche Inc., priority 2011, dated 2014).

Protein sequences, listed by entry. Tags and fused reporters are not part of them. Residues count along the entry.
UniProt P25774, 115-331: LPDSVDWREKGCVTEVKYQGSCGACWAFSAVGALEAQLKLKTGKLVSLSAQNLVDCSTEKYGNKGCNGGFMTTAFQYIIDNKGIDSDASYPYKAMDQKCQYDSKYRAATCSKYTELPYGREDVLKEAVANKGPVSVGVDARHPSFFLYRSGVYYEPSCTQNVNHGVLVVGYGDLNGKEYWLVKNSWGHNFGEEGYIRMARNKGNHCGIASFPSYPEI
UniProt P43235, 115-329: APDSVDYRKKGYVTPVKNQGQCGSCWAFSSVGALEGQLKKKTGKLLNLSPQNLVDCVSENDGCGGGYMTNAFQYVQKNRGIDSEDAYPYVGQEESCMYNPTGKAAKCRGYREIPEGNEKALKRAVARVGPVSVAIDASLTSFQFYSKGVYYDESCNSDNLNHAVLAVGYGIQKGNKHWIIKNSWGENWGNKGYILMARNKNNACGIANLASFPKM
UniProt P07711, 114-333: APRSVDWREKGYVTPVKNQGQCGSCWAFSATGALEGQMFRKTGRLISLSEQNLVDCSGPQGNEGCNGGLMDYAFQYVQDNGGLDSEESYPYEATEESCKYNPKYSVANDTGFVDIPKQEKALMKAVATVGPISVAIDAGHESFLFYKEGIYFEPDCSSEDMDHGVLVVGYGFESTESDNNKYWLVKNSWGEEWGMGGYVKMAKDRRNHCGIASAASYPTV

How the values were obtained:
Format in all cases: biochemical
human Cathepsin S = human Cathepsin S (Homo sapiens (Human), UniProt P25774); assay: Cathepsin enzyme inhibition assay (fluorogenic peptide substrate), Cat S; conditions: enzyme 1 nM, substrate Z-Val-Val-Arg-AMC 20 μM, pH 6.5
Experimental: (§1) Enzyme activity is measured by observing the increase in fluorescence intensity caused by cleavage of a peptide substrate containing a fluorophore whose emission is quenched in the intact peptide.
(§2) Assay buffer: 100 mM potassium phosphate pH 6.5, EDTA-Na 5 mM, Triton X-100 0.001%, DTT 5 mM.
(§3) Enzymes (all at 1 nM): human and mouse Cathepsin S, Cat K, Cat B, Cat L. Substrate (20 μM): Z-Val-Val-Arg-AMC, except for Cat K which uses Z-Leu-Arg-AMC (both from Bachem).
(§4) Excitation 360 nm, Emission 465 nm.
(§5) Enzyme is added to the substance dilutions in 96-well microtitre plates and the reaction is started with substrate. Fluorescence emission is measured over 20 minutes, during which time a linear increase is observed in the absence of inhibitor. IC50 are calculated by standard methods. Inhibition of human Cat S, mouse Cat S, human Cat K, mouse Cat K, human Cat B, mouse Cat B, human Cat L and mouse Cat L have been measured separately. The results obtained for human Cat S, L, K and B for representative compounds of the invention are expressed in the following table in μM.

human Cat K = human Cat K (Homo sapiens (Human), UniProt P43235); assay: Cathepsin enzyme inhibition assay (fluorogenic peptide substrate), Cat K; conditions: enzyme 1 nM, substrate Z-Leu-Arg-AMC 20 μM, pH 6.5
Experimental: as §1, §2, §3, §4, §5

human Cat B = human Cat B (Homo sapiens (Human), UniProt P07858); assay: Cathepsin enzyme inhibition assay (fluorogenic peptide substrate), Cat B; conditions: enzyme 1 nM, substrate Z-Val-Val-Arg-AMC 20 μM, pH 6.5
Experimental: as §1, §2, §3, §4, §5

human Cat L = human Cat L (Homo sapiens (Human), UniProt P07711); assay: Cathepsin enzyme inhibition assay (fluorogenic peptide substrate), Cat L; conditions: enzyme 1 nM, substrate Z-Val-Val-Arg-AMC 20 μM, pH 6.5
Experimental: as §1, §2, §3, §4
Enzyme is added to the substance dilutions in 96-well microtitre plates and the reaction is started with substrate. […] IC50 are calculated by standard methods. Inhibition of human Cat S, mouse Cat S, human Cat K, mouse Cat K, human Cat B, mouse Cat B, human Cat L and mouse Cat L have been measured separately.

IC50 (human Cathepsin S) [nM] | IC50 (human Cat K) [nM] | Compound | other results
1.12 | – | CC[C@H](NC(=O)[C@@H]1C[C@@H](S(=O)(=O)c2ccc(Cl)cc2C)CN1C(=O)OC(C)(C)C)C(=O)C(=O)NC1CC1 [Example 2, (2S,4R)-tert-butyl 4-(4-chloro-2-methylphenylsulfonyl)-2-((S)-1-(cyclopropylamino)-1,2-dioxopentan-3-ylcarbamoyl)pyrrolidine-1-carboxylate] | –
– | 25000 | CC[C@H](NC(=O)[C@@H]1C[C@@H](S(=O)(=O)c2ccccc2C(F)(F)F)CN1c1ccccc1[N+](=O)[O-])C(=O)c1nc2ccccc2o1 [Example 5, (2S,4R)-1-(2-Nitro-phenyl)-4-(2-trifluoromethyl-benzenesulfonyl)-pyrrolidine-2-carboxylic acid [(S)-1-(benzooxazole-2-carbonyl)-propyl]-amide] | –
– | – | CC[C@H](NC(=O)[C@@H]1C[C@@H](S(=O)(=O)c2ccccc2Cl)CN1C(=O)C1(c2ccc(I)cc2)CC1)C(=O)C(=O)NC1CC1 [Example 17, (2S,4R)-4-(2-chlorophenylsulfonyl)-N—((S)-1-(cyclopropylamino)-1,2-dioxopentan-3-yl)-1-(1-(4-iodophenyl)cyclopropanecarbonyl)pyrrolidine-2-carboxamide] | IC50 (human Cat B): 107 nM
– | 38.2 | CC(C)[C@H](NC(=O)[C@@H]1C[C@@H](S(=O)(=O)c2ccccc2Cl)CN1C(=O)C1(c2ccc(Cl)cc2)CC1)C(=O)C(=O)NC1CC1 [Example 28, (2S,4R)-1-(1-(4-chlorophenyl)cyclopropanecarbonyl)-4-(2-chlorophenylsulfonyl)-N—((S)-1-(cyclopropylamino)-4-methyl-1,2-dioxopentan-3-yl)pyrrolidine-2-carboxamide] | –
0.827 | – | CCCCNC(=O)C(=O)[C@H](CC)NC(=O)[C@@H]1C[C@@H](S(=O)(=O)c2ccccc2Cl)CN1C(=O)C1(c2ccc(Cl)cc2)CC1 [Example 31, (2S,4R)—N—((S)-1-(butylamino)-1,2-dioxopentan-3-yl)-1-(1-(4-chlorophenyl)cyclopropanecarbonyl)-4-(2-chlorophenylsulfonyl)pyrrolidine-2-carboxamide] | –
– | – | CCC[C@H](NC(=O)[C@@H]1C[C@@H](S(=O)(=O)c2ccc(Cl)cc2Cl)CN1C(=O)C1(c2ccc(Cl)cc2)CC1)C(=O)C(=O)NC1CC1 [Example 42, (2S,4R)-1-(1-(4-chlorophenyl)cyclopropanecarbonyl)-N—((S)-1-(cyclopropylamino)-1,2-dioxohexan-3-yl)-4-(2,4-dichlorophenylsulfonyl)pyrrolidine-2-carboxamide] | IC50 (human Cat L): 11.7 nM
– | 161 | CCNC(=O)C(=O)[C@H](CC)NC(=O)[C@@H]1C[C@@H](S(=O)(=O)c2ccccc2Cl)CN1C(=O)C1(c2ccc(Cl)cc2)CC1 [Example 43, (2S,4R)-1-(1-(4-chlorophenyl)cyclopropanecarbonyl)-4-(2-chlorophenylsulfonyl)-N—((S)-1-(ethylamino)-1,2-dioxopentan-3-yl)pyrrolidine-2-carboxamide] | –
0.478 | – | CC(C)[C@H](NC(=O)[C@@H]1C[C@@H](S(=O)(=O)c2ccccc2Cl)CN1C(=O)C1(c2ncc(Cl)cc2F)CC1)C(=O)C(=O)NC1CC1 [Example 58, (2S,4R)-1-(1-(5-chloro-3-fluoropyridin-2-yl)cyclopropanecarbonyl)-4-(2-chlorophenylsulfonyl)-N—((S)-1-(cyclopropylamino)-4-methyl-1,2-dioxopentan-3-yl)pyrrolidine-2-carboxamide] | –
